Where two headings read alike, the source gives them in different places.
Legend:
[1] = target: T1, caspase-6 cleavage of lamin A/C in SKNAS cells (Homo sapiens, UniProt P55212); assay: Cell-based ELISA for cleaved lamin A/C (cellular lamin cleavage assay); conditions: inhibitor 30 min before 3 µM staurosporine for 6 hours, small lamin A/C cleavage product
T1 construct: monitors cellular caspase-6 cleavage of endogenous lamin A/C under apoptotic conditions; endogenous in cells; host or cells: SKNAS (ATCC #CRL-2137)
T1 sequence (P55212 24-179 limits assumed): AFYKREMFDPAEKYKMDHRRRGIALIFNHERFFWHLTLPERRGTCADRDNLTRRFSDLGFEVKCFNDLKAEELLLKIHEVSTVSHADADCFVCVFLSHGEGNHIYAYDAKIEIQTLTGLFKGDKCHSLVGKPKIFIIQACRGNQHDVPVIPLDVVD
T1 sequence (P55212 194-293 limits assumed): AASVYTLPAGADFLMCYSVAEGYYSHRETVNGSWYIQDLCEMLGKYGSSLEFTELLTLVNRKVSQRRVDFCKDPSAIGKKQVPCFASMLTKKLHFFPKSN
Description: The following day, cell culture medium was aspirated and replaced with 20 µl/well basal medium (DMEM with no supplements added). […] 5 µl of diluted inhibitor was delivered to each well and incubated for 30 minutes in a cell culture incubator prior to addition of 5 µl/well staurosporine in basal medium. The final DMSO concentration in the assay was 0.1% and the final staurosporine concentration was 3 µM (or indicated concentration). […] Cells were permeabilized by the addition of 50 µl 0.2% Triton X-100 in PBS for 15 minutes at room temperature. […] The following day, primary antibody was aspirated and the wells washed 3 times with 100 µl TBST. Secondary antibody (donkey anti-rabbit IgG, HRP-conjugated (GE Healthcare #NA934V)) was delivered at 1∶2500 dilution in blocking agent (20 µl/well) and incubated 1 hour at room temperature.
In order to develop an assay more amenable to inhibitor screening, this antibody detection was adapted to a plate-based non-denaturing assay. […] Binding of the two antibodies that recognize neo-epitopes on the large or small lamin degradation products was detected by horseradish-peroxidase-labeled secondary antibody and subsequent chemiluminescent substrate addition (see methods for details).

[2] = target: T2, Caspase-6 (Homo sapiens, UniProt P55212); assay: Enzymatic caspase activity assay, (Ac-VEID)2-Rh110 substrate; conditions: 15 minute enzyme/inhibitor preincubation and 40 minute enzyme reaction
T2 sequence (P55212 24-179 limits assumed): T1 sequence (P55212 24-179 limits assumed)
T2 sequence (P55212 194-293 limits assumed): T1 sequence (P55212 194-293 limits assumed)

[3] = target: T3, Caspase-3 (Homo sapiens, UniProt P42574); assay: Enzymatic caspase activity assay, (Ac-DEVD)2-Rh110 substrate; assay type: biochemical; conditions: apparent IC50; 15 minute preincubation and 40 minute reaction; 300 pM caspase-3, 1 µM (Ac-DEVD)2-Rh110
T3 construct: made in house; host or cells: E. coli
T3 sequence (P42574 29-175 limits assumed): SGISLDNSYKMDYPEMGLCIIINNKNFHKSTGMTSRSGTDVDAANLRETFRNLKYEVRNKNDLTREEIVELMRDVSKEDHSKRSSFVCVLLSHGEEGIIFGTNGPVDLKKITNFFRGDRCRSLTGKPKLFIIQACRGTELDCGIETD
T3 sequence (P42574 176-277 limits assumed): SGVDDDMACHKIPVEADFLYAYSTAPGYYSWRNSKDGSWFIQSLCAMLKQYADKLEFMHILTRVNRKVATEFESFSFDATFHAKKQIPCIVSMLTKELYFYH

| SMILES | IC50 [1] | IC50 ([2]; read-out: Enzymatic Caspase-6 IC50) | IC50 ([2]; read-out: Mean IC50 Caspase-6, apparent IC50, 1 nM caspase-6, 5 µM (Ac-VEID)2-Rh110) | IC50 [3] |
| --- | --- | --- | --- | --- |
| CC[C@H](C)[C@H](NC(=O)[C@H](CCC(=O)O)NC(=O)[C@@H](NC(C)=O)C(C)C)C(=O)N[C@H](C=O)CC(=O)O [Ac-VEID-CHO] | > 100000 nM | 16 nM | 16.2 nM |  |
| CC(=O)N[C@@H](CC(=O)O)C(=O)N[C@@H](CCC(=O)O)C(=O)N[C@H](C(=O)N[C@H](C=O)CC(=O)O)C(C)C [Ac-DEVD-CHO] |  |  |  | 1.3 nM |

— publication PMC3257251, “A Whole Cell Assay to Measure Caspase-6 Activity by Detecting Cleavage of Lamin A/C” (PLoS ONE, 2012)
